Values quoted from earlier work in patent US6403630B1, “Treating cancers associated with overexpression of HER-2/neu” (Cornell Research Foundation, Inc., priority 1999, dated 2002).

System: metastatic breast cancer
Conditions: cited from earlier work

**Q.** Which remission time does the source give for “HERCEPTIN®: an antibody to HER-2/neu, available from Genentech” here?
**A.** lengthen
